Data: patent US20260042769A1, “TRIARYL AGONISTS OF ALPHA-2 ADRENERGIC RECEPTORS” (ALCEPTOR THERAPEUTICS, INC., priority 2023, published 2026)

The chains behind the UniProt entries cited, without tags or fusion partners.
UniProt P18089, whole entry: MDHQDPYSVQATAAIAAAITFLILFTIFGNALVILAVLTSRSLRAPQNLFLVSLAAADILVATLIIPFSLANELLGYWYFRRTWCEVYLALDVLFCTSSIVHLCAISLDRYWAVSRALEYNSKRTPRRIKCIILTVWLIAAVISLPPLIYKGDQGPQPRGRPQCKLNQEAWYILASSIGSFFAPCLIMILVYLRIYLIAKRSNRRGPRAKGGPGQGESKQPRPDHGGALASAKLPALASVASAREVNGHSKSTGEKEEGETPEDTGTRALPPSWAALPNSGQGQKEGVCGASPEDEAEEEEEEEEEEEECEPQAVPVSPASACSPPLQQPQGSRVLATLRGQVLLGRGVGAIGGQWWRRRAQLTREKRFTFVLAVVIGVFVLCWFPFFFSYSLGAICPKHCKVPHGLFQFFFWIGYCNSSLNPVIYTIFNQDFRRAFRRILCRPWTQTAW

Target: human ADRA2B receptor (Homo sapiens, UniProt P18089)
Assay: ADRA2B arrestin agonist assay
Details: read-out: Beta-Arrestin - Human Alpha2B EC50; CHO-K1 cells stably expressing human ADRA2B

With `Cc1nccc(C[C@@H](c2c[nH]cn2)c2cccc3c2OCCCO3)n1` the EC50 was 50 to 500 nM.
In the case of `Cc1cccc([C@H](Cc2ccn(C3CC3)n2)c2c[nH]cn2)c1C`, the EC50 is reported as < 10 nM.
